Results reported in PMC8843160, “Ion-pair compounds of diacerein for enhancing skin permeability in vitro: the compatibility–permeability relationship of counter ion and diacerein” (Drug Delivery, 2022).

Legend:
[1] = Equilibrium solubility experiments; format: physicochemical; conditions: 48 h; for Equilibrium solubility PBS (pH 7.4): PBS pH 7.4, 32 °C; for Equilibrium solubility IPM: isopropyl myristate; for Equilibrium solubility IPM / Equilibrium solubility Water: 32 °C
Procedure: The obtained complexes were vibrated by ultrasonic for 10 min then continuously shaken in a water bath at 32 °C until equilibrium.
(§1) The samples were determined by an LC-20A HPLC system (SHIMADZU, Kyoto, Japan). The separation was achieved on an InertSustain C18 column (4.6 mm × 250 mm, 5 µm, SHIMADZU, Kyoto, Japan) with the flow rate keeping at 1.0 mL/min, the column temperature maintaining at 40 °C and mobile phase consisting of methanol:water (25:75, v/v) with 0.4% phosphoric acid in water. Injection volume for each run was 50 μL, and detection wavelength was 254 nm.

[2] = Apparent distribution coefficient (Log P), shake-flask method; format: physicochemical; conditions: n-octanol/distilled water, 48 h, 32 °C
Procedure: The classic shake-flask method was used to determine the apparent distribution coefficient (Log P). DCN and its ion-pair complexes were added into n-octanol, then mixed with equal volume distilled water. The samples were shaken for 48 h at 32 °C and centrifuged at 10,000 rpm for 10 min. After phase separation, the concentrations of each drug in both water and n-octanol layer were analyzed by HPLC.
as §1

SMILES | Equilibrium solubility PBS (pH 7.4) [1] [μg/mL] | Equilibrium solubility IPM [1] [µg/mL] | Equilibrium solubility Water [1] [µg/mL] | Log P [2]
CC(=O)Oc1cccc2c1C(=O)c1c(OC(C)=O)cc(C(=O)O)cc1C2=O.CCNCC [DCN-Dea] | 18473.86 ± 91.09 | 410.37 ± 20.56 | 5453.36 ± 27.84 | –0.32 ± 0.007
CC(=O)Oc1cccc2c1C(=O)c1c(OC(C)=O)cc(C(=O)O)cc1C2=O [DCN, Diacerein] |  |  |  | 1.50 ± 0.01
CC(=O)Oc1cccc2c1C(=O)c1c(OC(C)=O)cc(C(=O)O)cc1C2=O.CCN(CC)CC [DCN-Tea] |  |  |  | –0.27 ± 0.006
CC(=O)Oc1cccc2c1C(=O)c1c(OC(C)=O)cc(C(=O)O)cc1C2=O.OCCN(CCO)CCO [DCN-Teta] | 2514.24 ± 10.27 | 99.38 ± 12.80 | 6374.94 ± 14.60 | –0.13 ± 0.005
CC(=O)Oc1cccc2c1C(=O)c1c(OC(C)=O)cc(C(=O)O)cc1C2=O.OCCNCCO [DCN-Deta] | 11105.50 ± 18.51 | 115.89 ± 16.60 | 3998.30 ± 12.50 | –0.22 ± 0.006
CC(=O)Oc1cccc2c1C(=O)c1c(OC(C)=O)cc(C(=O)O)cc1C2=O.NCCO [DCN-eta] |  |  |  | –0.25 ± 0.005
